Data published in ChEMBL document CHEMBL5634116, “Strategies for developing retinoic acid receptor alpha-selective antagonists as novel agents for male contraception” (Eur J Med Chem, 2023).

Protein sequences, listed by entry. Tags and fused reporters are not part of them.
UniProt P10826, whole entry: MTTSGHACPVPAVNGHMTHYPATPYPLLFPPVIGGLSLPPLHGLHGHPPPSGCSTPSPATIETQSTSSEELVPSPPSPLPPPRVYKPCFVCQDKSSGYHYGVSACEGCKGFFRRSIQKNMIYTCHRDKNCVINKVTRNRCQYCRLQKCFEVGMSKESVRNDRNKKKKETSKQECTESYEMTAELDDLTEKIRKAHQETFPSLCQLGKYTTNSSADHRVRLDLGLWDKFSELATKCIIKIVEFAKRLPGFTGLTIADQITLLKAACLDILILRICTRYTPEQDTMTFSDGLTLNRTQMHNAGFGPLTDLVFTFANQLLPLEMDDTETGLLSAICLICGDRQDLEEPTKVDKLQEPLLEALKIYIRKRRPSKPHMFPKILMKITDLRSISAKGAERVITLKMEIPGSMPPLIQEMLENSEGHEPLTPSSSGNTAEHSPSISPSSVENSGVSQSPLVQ
UniProt P13631, whole entry: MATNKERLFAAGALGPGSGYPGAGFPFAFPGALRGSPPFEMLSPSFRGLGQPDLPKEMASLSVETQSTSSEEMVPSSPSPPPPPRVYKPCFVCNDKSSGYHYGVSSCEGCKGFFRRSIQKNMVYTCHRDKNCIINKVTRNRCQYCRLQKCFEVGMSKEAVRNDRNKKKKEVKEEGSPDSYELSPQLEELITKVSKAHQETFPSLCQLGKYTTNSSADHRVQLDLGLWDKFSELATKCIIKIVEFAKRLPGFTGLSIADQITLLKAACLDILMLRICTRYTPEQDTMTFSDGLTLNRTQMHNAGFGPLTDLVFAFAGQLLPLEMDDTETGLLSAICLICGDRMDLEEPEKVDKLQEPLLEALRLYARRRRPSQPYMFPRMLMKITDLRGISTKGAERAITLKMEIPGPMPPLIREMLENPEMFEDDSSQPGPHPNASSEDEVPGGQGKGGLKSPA
UniProt P10276, whole entry: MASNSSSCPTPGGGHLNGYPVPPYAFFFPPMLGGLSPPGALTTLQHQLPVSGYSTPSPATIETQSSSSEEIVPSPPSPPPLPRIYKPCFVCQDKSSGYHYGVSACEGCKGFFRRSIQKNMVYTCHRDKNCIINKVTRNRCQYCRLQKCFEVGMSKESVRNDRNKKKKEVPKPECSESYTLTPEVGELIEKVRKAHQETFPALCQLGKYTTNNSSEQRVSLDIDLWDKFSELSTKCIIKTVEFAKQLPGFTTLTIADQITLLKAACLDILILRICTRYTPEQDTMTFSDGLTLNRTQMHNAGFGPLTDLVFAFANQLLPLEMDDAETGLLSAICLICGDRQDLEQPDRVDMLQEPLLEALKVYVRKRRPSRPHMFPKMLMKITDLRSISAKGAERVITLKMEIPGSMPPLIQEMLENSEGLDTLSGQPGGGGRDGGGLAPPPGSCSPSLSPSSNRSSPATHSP

Experiments:
Assay type in all cases: cell-based
[1] = molecular target: Retinoic acid receptor beta (Homo sapiens, UniProt P10826); test: Agonist activity at recombinant human RAR-beta expressed in mammalian cells by luciferase reporter gene based transactivation assay relative to control
In short: (§1)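 Transactivation in proprietary reporter cells expressing recombinant human RAR subtype with RARE-linked beetle luciferase. Compounds in DMSO (final 0.4%), 8-point dose response in triplicate; cells added, incubated overnight at 37 °C, 5% CO2, then luciferase reagent 30 min r.t., luminescence read.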

[2] = molecular target: Retinoic acid receptor gamma (Homo sapiens, UniProt P13631); test: Agonist activity at recombinant human RAR-gamma expressed in mammalian cells by luciferase reporter gene based transactivation assay relative to control; in short: as §1
[3] = molecular target: Retinoic acid receptor alpha (Homo sapiens, UniProt P10276); test: Agonist activity at recombinant human RAR-alpha expressed in mammalian cells by luciferase reporter gene based transactivation assay relative to control; in short: as §1

Row | Emax [1] [%] | Emax [2] [%] | Emax [3] [%] | SMILES
1 | 0 | 0 | 0 | CC1(C)CC=C(c2cnc3ccccc3c2)c2cc(C(=O)Nc3ccc(C(=O)O)cc3)ccc21
2 |  |  | 12 | CC1(C)CC=C(c2ccccc2)c2cc(/C=C/c3ccc(C(=O)O)cc3)ccc21
